The values that follow are results of earlier work, collected in patent US20210207079A1, “PROCESS FOR PRODUCING CELL CULTURE MEDIA” (Merck Patent GmbH, priority 2015, published 2021).

The conditions of this data set: H2O at 25° C.; cited from earlier work.

As to `O.O=C([O-])CC(O)(CC(=O)[O-])C(=O)[O-].[Fe+3]` [Iron(III)Citrate Hydrate, Fe(III) citrate hydrate], the “Dissolution (speed)” value is recorded as “very slow”.
